Tests used:
[1] = system: scratching behavior induced by Compound 48/80; assay: Scratching behavior induced by intradermal Compound 48/80 in ddY mice; assay type: in vivo; details: s.c. 30 minutes before Compound 48/80 (100 μg/site), dose mg/kg per compound: 2 1.0, 3 0.0057, 5 0.016, 6 0.005, 7 0.005, 8 0.01, 9 1.8, 10 0.46, 11 0.0018, 12 0.07, 13 0.07, 14 0.31, 15 1.88, 16 0.0046, 17 0.0066, 18 0.03, 19 0.03, 20 0.006, 21 0.0003, 22 1.2, 23 0.0069
[2] = system: scratching behavior induced by nor-BNI; assay: Scratching behavior induced by subcutaneous nor-BNI in ddY mice; assay type: in vivo; details: i.p. 30 minutes before s.c. nor-BNI, counted over 60 minutes, U-50488H 1, 3 or 10 mg/kg, chlorophenylamine 0.3, 1.0 or 3.0 mg/kg

Row | SMILES | Inhibition (%) of scratching behavior [1] [%] | Number of scratching behavior induced by nor-BNI (FIG. 1, in words) [2]
1 | CN(C(=O)Cc1cccc2occc12)[C@H]1CC[C@@]2(CCCO2)C[C@@H]1N1CCCC1 | 46 | 
2 | CN(C(=O)Cc1ccc(Cl)c(Cl)c1)[C@@H]1CCCC[C@H]1N1CCCC1 (relative stereo) |  | decreased significantly
3 | CN(C(=O)Cc1cccc2sccc12)[C@H]1CCCC[C@@H]1N1CCCC1 | 70 | 
